For test [1], the target named is Kordia algicida HPPD "SEQ ID No. 5" (FMP27e) (Kordia algicida, UniProt A9DQF2). The experiment in a line: HPLC assay of HPPD in vitro kinetic properties. In kind it is biochemical. The protocol:
Km, Vmax, and kcat values for different HPPD enzyme preparations and Ki, K1=Kon, and K−1=Koff for different HPPD inhibitors were determined using a HPLC assay for measurements of HPPD activity. […] All assays were started by the addition of HPPD enzyme to the assay mixture and stopped at a series of times between 0 and 240 s by addition of 200 μl of the reaction mixture to reaction assay tubes containing 20 μl 10% perchloric acid. Precipitated protein was pelleted by a 5 minute centrifugation at 10,000 g.
For Km and Vmax value determinations the initial rates of the HPPD reaction at different substrate concentrations were determined from plots of HGA formed versus time and fitted to the Michaelis-Menten equation for unireactant enzymes using the ID Business Solutions Ltd. (idbs.com) XLfit software suite.

Protein sequences, listed by entry. Tags and fused reporters are not part of them. Lines headed by an entry give the natural chain unless they say otherwise; changes in a name come on top.
UniProt A9DQF2, entry or part of it: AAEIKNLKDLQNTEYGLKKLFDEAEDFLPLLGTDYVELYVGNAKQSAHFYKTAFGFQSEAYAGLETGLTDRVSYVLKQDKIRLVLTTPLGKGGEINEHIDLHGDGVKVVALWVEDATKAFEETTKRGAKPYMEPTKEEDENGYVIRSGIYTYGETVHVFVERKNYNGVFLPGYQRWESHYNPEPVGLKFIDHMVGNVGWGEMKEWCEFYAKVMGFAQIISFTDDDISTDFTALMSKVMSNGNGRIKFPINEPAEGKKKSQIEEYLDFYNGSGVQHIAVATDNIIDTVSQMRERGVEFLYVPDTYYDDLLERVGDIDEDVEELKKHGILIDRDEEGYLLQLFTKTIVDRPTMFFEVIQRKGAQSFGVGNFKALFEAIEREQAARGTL

Test [2] addresses Kordia algicida HPPD "SEQ ID No. 5" (Kordia algicida, UniProt A9DQF2). Put plainly: biochemical. As to conditions: for inhibition at 5 µM: read-out: percentage of inhibition compared to the activity in absence of the inhibitor.

A word on the kon: it is the second-order rate constant of association. The term koff denotes the first-order rate constant of dissociation. Broadly, the inhibition is the relative decrease from the control value, in per cent. By IC50 is commonly meant the concentration at which inhibition is half-maximal. Higher therefore signals a need for much substance.

With `CS(=O)(=O)c1cc(C(F)(F)F)ccc1C(=O)C(C#N)C(=O)C1CC1` (centres unmarked) [Diketonitrile, 2-cyano-3-cyclopropyl-1-(2-methylsulphonyl-4-trifluoromethylphenyl)-propane-1,3-dione], the kon in test [1] (read-out: k1 (=Kon)) is 1100 M⁻¹ s⁻¹. Further, the koff in test [1] (read-out: k−1 (=Koff)) was found to be 0.017 s⁻¹.

Consider `CS(=O)(=O)c1ccc(C(=O)C2C(=O)CCCC2=O)c([N+](=O)[O-])c1` [Mesotrione, 2-[4-(methylsulfonyl)-2-nitrobenzoyl]-1,3-cyclohexanedione], for which the inhibition at 5 µM in test [2] came out at 85%.

For `CS(=O)(=O)c1ccc(C(=O)C2C(=O)CCCC2=O)c(Cl)c1` [Sulcotrione, 2-[2-chloro-4-(methylsulfonyl)benzoyl]-1,3-cyclohexanedione], in test [2], the IC50 is below 2510 nM and the inhibition at 5 µM was determined as 85%.

Source of the values: patent US20150159169A1, “Plants Tolerant to HPPD Inhibitor Herbicides” (Bayer CropScience AG, priority 2009, published 2015).
